In patent US11707503B2, “Modulators of complement activity” (Ra Pharmaceuticals, Inc., priority 2015, dated 2023):

Key:
C5a = C5a enzyme immunoassay (EIA) on human RBC hemolysis assay supernatant; format: biochemical; settings: hemolysis supernatant diluted 1:50; read-out: IC50, inhibition of formation of C5a
Procedure: (§1) Inhibition of the production of C5a and the membrane attack complex (MAC) were measured by MicroVue EIA kits (Quidel Corporation, San Diego, Calif.).
as §1

[1] = test system: membrane attack complex (MAC); experiment: Membrane attack complex (MAC) EIA on human RBC hemolysis assay supernatant; format: biochemical; settings: hemolysis supernatant diluted 1:5; read-out: IC50, inhibition of formation of the MAC
Procedure: as §1, §1

[2] = Pharmacokinetic studies in rat (IV and SC); settings: R3183 versus R3176
Text: In the figure, circles represent concentrations obtained after SC dose and squares represent concentrations obtained after IV dose.
Blood samples were collected at indicated time points, processed into plasma, and analyzed for the indicated compound by LC-MS. […] Blood samples were collected at indicated time points, processed into plasma, and analyzed for the indicated compound by LC-MS.

[3] = test system: thrombin-induced complement pathway; experiment: Inhibition of hemolysis in the thrombin-induced complement pathway (C5, C6, thrombin, then C7, C8, C9); format: cell-based
Procedure: These diluted samples were mixed with antibody-sensitized sheep erythrocytes (Complement Technology, Tyler, Tex.) in a 96-well microtitre plate (USA Scientific, Ocala, Fla.) and incubated at 37° C. for 5 minutes. C7 (Complement Technology, Tyler, Tex.) was then added to the wells to achieve a concentration of 15 nM and the plate was returned to 37° C. for 15 minutes. A complex of C8 (10 nM; Complement Technology, Tyler, Tex.) and C9 (25 nM; Complement Technology, Tyler, Tex.) was then added to the assay mixture and the samples were incubated for 30 minutes at 37° C.
The reaction was stopped with the addition of hirudin. The diluted samples were mixed with antibody-sensitized sheep erythrocytes and then incubated for 5 minutes at 37° C. Purified C7 was added and incubated for 15 minutes at 37° C. A complex of purified C8 and C9 was then added and the mixture was incubated for 30 minutes at 37° C.

[4] = test system: alternative pathway of complement activation; experiment: WIESLAB complement system screening kit, alternative pathway; format: biochemical; settings: serum samples, read-out: IC50, inhibition of the alternative pathway of complement activation
C5 [5] = experiment: Hemolysis assay with pig serum; format: cell-based, pigs
C5 [6] = experiment: Hemolysis assay with dog serum; format: cell-based, dogs
primate C5 protein = experiment: Pharmacodynamic and pharmacokinetic multi-dose study in non-human primates with ex vivo hemolysis
Procedure: This group was also monitored for 10 days after receiving the final dose. Plasma samples were obtained prior to each dose, immediately post-dose and twice thereafter each day until daily dosing was completed. Samples were taken periodically thereafter for 10 days.
The inhibition of complement-mediated MAC formation in the same plasma samples was examined using an established ex vivo assay in which plasma was diluted 1:100 and incubated with activated sheep red blood cells (Complement Technology, Tyler, Tex.). At each time-point, the hemolytic activity was determined as an indicator of active serum complement (see FIGS. 12A and 12B).

C5 [7] = test system: C5

With `CCCCCCCCCCCCCCCC(=O)NCCCC[C@H](NC(=O)[C@@H](NC(=O)[C@@H]1CCCN1C(=O)[C@H](Cc1ccc(O)cc1)NC(=O)[C@H](CCC(=O)O)NC(=O)[C@H](Cc1c[nH]c2ncccc12)NC(=O)[C@H](Cc1ccc(O)cc1)NC(=O)[C@@H](NC(=O)[C@H](CC(=O)O)N(C)C(=O)[C@@H]1CC(=O)NCCCC[C@H](NC(C)=O)C(=O)N[C@@H](C(C)C)C(=O)N[C@@H](CCC(=O)O)C(=O)N[C@@H](CCCNC(=N)N)C(=O)N[C@@H](Cc2ccccc2)C(=O)N1)C(C)(C)C)C1CCCCC1)C(=O)O` [Compound R3183, [cyclo(1,6)]Ac-K-V-E-R-F-D-(N—Me)D-Tbg-Y-azaTrp-E-Y-P-Chg-(Lys-C16)] the IC50 (C5a) was 11 nM, the IC50 [1] was 6.9 nM and the “increase in exposure (AUC) by lipidation, intravenous route” value ([2]; 2 mg/kg IV) was 2.1 fold. For the same compound, the “increase in exposure (AUC) by lipidation, subcutaneous route” value ([2]; 15 mg/kg SC) was 2.7 fold, the “inhibition of hemolysis by the thrombin-induced complement pathway in words” value [3] was “strong inhibition” and the IC50 [4] was 12.5 nM. For the same compound, the “activity in serum from pigs” value (C5 [5]) was “active”, the “activity in the serum of dogs” value (C5 [6]) was “less active” and the “inhibition of hemolytic activity ex vivo” value (primate C5 protein; low dose group 0.3 mg/kg daily, some plasma concentrations between 2000 and 4000 ng/ml) was 90%. For the same compound, the “inhibition of hemolytic activity ex vivo” value (primate C5 protein; low dose group, most plasma concentrations above 4000 ng/ml) was “greater than 90%”, the “time after final treatments that inhibition of hemolytic activity was detected” value (primate C5 protein; non-human primates, daily dosing for 7 days) was “up to 10 days” and the “activity in the serum of rodents” value (C5 [7]) was “less active”.
